Values quoted from earlier work in Sander's compilation of Henry's law constants (doi:10.1063/1.555654).

Test: Henry solubility constant Hcp at 298.15 K (mol/(m3 Pa))
Settings: reference: Mackay and Shiu (1981); cited value

CCl [chloromethane]
Henry solubility constant Hcp: 0.0011
